Molecular target: HDAC11 (Homo sapiens (Human), UniProt Q96DB2)
Assay: HDAC11 fluorogenic peptide deacetylation inhibition assay
Assay type: biochemical
Conditions: average of two experiments; read-out: HDAC Isoform IC50 (μM) 11

The chains behind the UniProt entries cited, without tags or fusion partners. Where a name states a change or a piece, a line headed by the entry shows the natural chain unless it says otherwise.
UniProt Q96DB2: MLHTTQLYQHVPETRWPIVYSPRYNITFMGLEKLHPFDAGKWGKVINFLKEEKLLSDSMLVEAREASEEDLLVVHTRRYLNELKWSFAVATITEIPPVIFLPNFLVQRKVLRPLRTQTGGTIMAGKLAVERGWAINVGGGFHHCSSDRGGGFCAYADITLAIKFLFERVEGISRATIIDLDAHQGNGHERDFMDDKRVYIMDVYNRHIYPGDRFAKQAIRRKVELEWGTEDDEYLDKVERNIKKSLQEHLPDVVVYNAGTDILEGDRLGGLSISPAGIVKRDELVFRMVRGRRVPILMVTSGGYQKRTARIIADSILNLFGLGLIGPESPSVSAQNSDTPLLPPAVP

Structure (SMILES): O=C(CCCCCCC(=O)Nc1ccc([C@H]2O[C@@H](CSc3nc(-c4ccccc4)c(-c4ccccc4)o3)C[C@@H](c3ccc(CO)cc3)O2)cc1)NO [Tubacin]
- IC50: 3.79 µM
